Values after ≈ are worked out from the molar mass of the structure shown.
Test system: bacterial isolates
Experiment: microbe, parasite or virus in culture
Conditions: Klebsiella pneumoniae, read-out: Ceftriaxone MIC Alone, K. pneumoniae KP003

For CO/N=C(\C(=O)N[C@@H]1C(=O)N2C(C(=O)O)=C(CSc3nc(=O)c(=O)[nH]n3C)CS[C@H]12)c1csc(N)n1 [Ceftriaxone], the MIC was 8 mg/L (≈ 14.4 µM).
